Experimental findings from ChEMBL document CHEMBL3232856, “Endomorphin analogues with mixed μ-opioid (MOP) receptor agonism/δ-opioid (DOP) receptor antagonism and lacking β-arrestin2 recruitment activity” (Bioorg Med Chem, 2014) are described below.

Chains of the proteins cited; added tags and fusions are not shown.
UniProt P35372, whole entry: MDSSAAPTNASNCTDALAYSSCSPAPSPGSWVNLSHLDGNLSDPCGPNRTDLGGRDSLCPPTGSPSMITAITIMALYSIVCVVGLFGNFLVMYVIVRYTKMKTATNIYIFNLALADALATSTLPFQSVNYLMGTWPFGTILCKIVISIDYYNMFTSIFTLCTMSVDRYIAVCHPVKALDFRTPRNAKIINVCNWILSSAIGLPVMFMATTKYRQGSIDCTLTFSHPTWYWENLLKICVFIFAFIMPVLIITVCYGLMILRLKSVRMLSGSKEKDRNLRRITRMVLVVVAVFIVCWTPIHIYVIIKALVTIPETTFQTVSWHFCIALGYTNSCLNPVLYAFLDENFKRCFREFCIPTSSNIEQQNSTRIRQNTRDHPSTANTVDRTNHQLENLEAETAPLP

The target in the assay is Mu-type opioid receptor (Homo sapiens, UniProt P35372). The experiment in a line: Agonist activity at GFP-fused mu opioid receptor (unknown origin) expressed in HEK293 cells assessed as recruitment of beta-arrestin-2 after 10 mins by BRET assay. It is filed as cell-based. (Bioluminescence resonance energy transfer reports proximity on the nanometre scale.)

Usually EC50 stands for the concentration needed to bring the measured effect to its halfway point.

Molecules are shown by their SMILES.

`CC(C)C[C@@H](NC(=O)[C@H](Cc1ccccc1)NC(=O)CNC(=O)[C@@H](C)NC(=O)[C@@H](N)Cc1ccc(O)cc1)C(=O)O` [DADLE]: the EC50 was determined as 1300 nM.
